Conditions: rat, in vivo

IR780-oleyl
dose response (concentration ratio normalized to injected dose): < 1
sampling point at which the organ:blood ratio reaches its peak: 24- to 96 h
